Among the data in ChEMBL document CHEMBL2311506, “Novel benzoxazole inhibitors of mPGES-1” (Bioorg Med Chem Lett, 2013) are CL values, retold here.

The subject of the data set is Canis familiaris. As to the kind of experiment: Clearance in dog at 0.25 mg/kg, iv. The format is ADME, organism-based, Canis lupus familiaris. Details: dose 0.25 mg/kg, route intravenous. Conditions: in vivo.

For the compound `O=C(N[C@H]1CCC[C@@H]1OCc1ccccc1)C1CCN(c2nc3cc(Cl)ccc3o2)CC1`, the CL stood at 2.1 mL/mg/kg.
